Consider 2 substances from paper PMC7465369.

The target of experiment [1] is human 8-oxoguanine–DNA glycosylase (OGG1) (human) (UniProt O15527).
The target is the same in experiment [2]. Description: MST; 30 nM His6-OGG1 labeled with red Tris-NTA dye, titrated with unlabeled POLβ; 100 mM Tris-HCl pH 7.5, 10 mM MgCl2, 1% glycerol; Monolith NT.115; one-site-binding model.

Take “rat DNA polymerase β (POLβ) (from UniProt P06766 1-335) (enzyme)”: the enhancement of OGG1 turnover (cleavage of the labeled secondary substrate, two-substrate displacement assay), 10 nM POLβ, OGG1 on the template or the downstream strand in experiment [1] is above 2 fold.

With “rat DNA polymerase β (POLβ) (from UniProt P06766 1-335) (enzyme; other documents disagree on this pair)”, the Kd – broadly, the equilibrium constant for the complex coming apart – in experiment [2] is 580 nM.
